Reference: patent US20240417393A1, “CERTAIN 2,5-DIAZABICYCLO[4.2.0]OCTANES AS GLP-1 RECEPTOR MODULATORS” (ASTRAZENECA AB, priority 2021, published 2024)
pIC50: −log10 of the molar value.

Protein sequences, listed by entry. Tags and fused reporters are not part of them. Lines headed by an entry give the natural chain unless they say otherwise; changes in a name come on top.
UniProt Q14432: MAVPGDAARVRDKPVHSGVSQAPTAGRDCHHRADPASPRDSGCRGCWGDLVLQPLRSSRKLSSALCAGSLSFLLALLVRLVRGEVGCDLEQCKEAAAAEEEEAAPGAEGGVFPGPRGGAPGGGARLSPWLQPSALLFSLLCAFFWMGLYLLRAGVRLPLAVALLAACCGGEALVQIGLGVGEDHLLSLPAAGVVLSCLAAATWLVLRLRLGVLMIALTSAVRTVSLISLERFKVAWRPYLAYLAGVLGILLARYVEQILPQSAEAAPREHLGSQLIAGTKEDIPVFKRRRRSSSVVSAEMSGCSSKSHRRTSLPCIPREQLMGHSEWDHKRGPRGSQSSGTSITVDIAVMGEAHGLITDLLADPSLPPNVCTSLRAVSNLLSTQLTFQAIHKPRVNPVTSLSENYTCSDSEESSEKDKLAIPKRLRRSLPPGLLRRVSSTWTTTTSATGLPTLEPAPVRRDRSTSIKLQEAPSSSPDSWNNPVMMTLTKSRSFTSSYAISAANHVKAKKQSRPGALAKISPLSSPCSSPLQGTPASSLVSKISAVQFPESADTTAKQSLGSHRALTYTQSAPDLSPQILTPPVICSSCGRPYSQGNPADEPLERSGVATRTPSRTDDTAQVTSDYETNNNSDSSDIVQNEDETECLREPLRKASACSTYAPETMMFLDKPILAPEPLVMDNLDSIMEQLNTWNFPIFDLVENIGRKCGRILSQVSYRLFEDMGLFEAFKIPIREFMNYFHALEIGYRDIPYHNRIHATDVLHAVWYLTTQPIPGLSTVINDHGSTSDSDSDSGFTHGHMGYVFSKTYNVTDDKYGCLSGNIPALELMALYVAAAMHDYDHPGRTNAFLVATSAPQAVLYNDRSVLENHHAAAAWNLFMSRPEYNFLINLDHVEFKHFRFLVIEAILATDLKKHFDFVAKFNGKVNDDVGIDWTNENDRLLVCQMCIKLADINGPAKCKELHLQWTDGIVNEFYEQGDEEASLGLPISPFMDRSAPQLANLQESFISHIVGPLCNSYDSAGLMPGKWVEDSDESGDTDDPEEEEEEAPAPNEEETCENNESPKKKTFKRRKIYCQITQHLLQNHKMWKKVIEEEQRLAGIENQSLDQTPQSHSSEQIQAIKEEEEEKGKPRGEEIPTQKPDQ

Molecular target: T1, human phosphodiesterase-3A (Homo sapiens, UniProt Q14432)
T1 construct: host or cells: Sf9 (Spodoptera frugiperda) cells
Experiment: PDE3 Assay ([3H]cAMP to 5'AMP, SPA)
Assay type: biochemical
Conditions: human recombinant PDE3A expressed in Sf9 cells; 450 nM cAMP; 20 min at 22° C.
Experimental: Evaluation of the effects of compounds on the activity of the human phosphodiesterase-3A is quantified by measuring the formation of 5′AMP from cAMP using a human recombinant is enzyme expressed in a clonal isolate of Spodoptera frugiperda cells (Sf9) cells.
The test compound, reference compound or water (control) are added to a buffer containing 40 mM tris(hydroxymethyl)aminomethane (Tris)/HCl (pH 7.4) and 8 mM MgCl2, 450 nMcAMP and 0.25 μCi [^3H]cAMP.
Thereafter, the reaction is initiated by addition of the enzyme (about 1U) and the mixture is incubated for 20 min at 22° C.
For basal control measurements, the enzyme is omitted from the reaction mixture.
Following incubation SPA beads are added. After 30 min at 22° C. under shaking, the amount of [^3H]5′AMP is quantified with a scintillation counter (Topcount, Packard).
The results are expressed as a percent inhibition of the control enzyme activity. The standard inhibitory reference compound is milrinone (CAS number 78415-72-2), which is tested in each experiment at several concentrations to obtain an inhibition curve from which its IC50 value is calculated.

## COc1cc(C(=O)O)cc2c1nc(CN1CCN(c3cccc4c3O[C@@](C)(c3ccc(Cl)cc3F)O4)[C@H]3CC[C@@H]31)n2C[C@@H]1CCO1 (single isomer, unassigned) [Example 4a, 2-(((1R*,6R*)-5-((R*)-2-(4-Chloro-2-fluorophenyl)-2-methylbenzo[d][1,3]dioxol-4-yl)-2,5-diazabicyclo[4.2.0]octan-2-yl)methyl)-4-methoxy-1-(((S)-oxetan-2-yl)methyl)-1H-benzo[d]imidazole-6-carboxylic acid]
  pIC50: < 4.13
